Test [1] deals with T1, full-length B-Catenin (Uniprot ID P35222) (Homo sapiens, UniProt P35222).
T1 construct: 10 nM full-length B-Catenin (Uniprot ID P35222)
Nature of the test: biochemical. Type of test: binding. The note with it: beta-Catenin FP IC50 (nM), competition fluorescence polarization.

The chains behind the UniProt entries cited, without tags or fusion partners.
UniProt P35222, whole entry: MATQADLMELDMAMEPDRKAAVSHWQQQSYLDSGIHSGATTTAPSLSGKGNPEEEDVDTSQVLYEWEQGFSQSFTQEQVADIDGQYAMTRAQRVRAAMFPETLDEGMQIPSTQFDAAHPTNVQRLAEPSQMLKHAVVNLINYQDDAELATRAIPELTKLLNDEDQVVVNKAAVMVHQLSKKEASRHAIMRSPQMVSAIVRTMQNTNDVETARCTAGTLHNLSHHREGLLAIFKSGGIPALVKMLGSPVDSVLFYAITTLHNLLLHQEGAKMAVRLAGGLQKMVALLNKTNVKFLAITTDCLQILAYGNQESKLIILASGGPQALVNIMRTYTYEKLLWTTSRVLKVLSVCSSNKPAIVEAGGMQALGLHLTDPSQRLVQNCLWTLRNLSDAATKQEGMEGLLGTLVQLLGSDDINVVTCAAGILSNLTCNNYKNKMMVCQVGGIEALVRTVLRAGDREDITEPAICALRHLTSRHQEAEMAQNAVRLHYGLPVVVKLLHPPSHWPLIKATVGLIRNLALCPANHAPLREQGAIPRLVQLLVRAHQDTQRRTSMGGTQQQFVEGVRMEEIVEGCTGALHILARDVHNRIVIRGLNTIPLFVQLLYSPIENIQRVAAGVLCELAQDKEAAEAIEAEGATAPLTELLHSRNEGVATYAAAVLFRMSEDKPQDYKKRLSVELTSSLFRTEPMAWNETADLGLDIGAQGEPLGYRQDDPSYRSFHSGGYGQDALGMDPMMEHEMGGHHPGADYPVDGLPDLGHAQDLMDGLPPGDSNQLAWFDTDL

Test [2] concerns the target beta-catenin/TCF4 interaction (Homo sapiens, UniProt P35222). Nature of the test: cell-based. The note with it: NanoBRET Abs IC50 (uM). Details: host or cells: HEK293.

Consider 14 compounds from patent publication US20240360179A1, “STAPLED PEPTIDES AND METHODS THEREOF” (FOG PHARMACEUTICALS, INC., priority 2021, published 2024).

Turning to `CC(=O)N1CCC[C@]12CC=CCCCC1(CCCC=CCCCOC(=O)N3CC[C@@]4(C3)NC(=O)[C@H](CCCCNC(=O)CC[C@@H](C(=O)N[C@@H](C)C(N)=O)NC(=O)[C@H](Cc3csc5ccccc35)NC(=O)[C@H](Cc3ccsc3)NC4=O)NC(=O)[C@H](Cc3ccccc3)NC(=O)[C@H](C)NC(=O)C(C)(C)NC(=O)[C@H](Cc3cccc(C(=O)O)c3)NC(=O)[C@H](CC(=O)O)NC1=O)NC(=O)[C@H](CC(C)(C)C)NC(=O)[C@H](CCO)NC2=O` (relative stereo) [I-162, Ac-PL3-Hse-Npg-B5-Asp-3COOHF-Aib-Ala-Phe-Lys*3-PyrS2-3Thi-BztA-GlnR*3-Ala-NH2], the IC50 in test [1] is 200 to 750 nM; in test [2], above 10 µM.

As to `CC(=O)N1CCC[C@]12CC=CCCCC1(CCCC=CCCCOC(=O)N3CC[C@@]4(C3)NC(=O)[C@H](CCCCNC(=O)CC[C@@H](C(=O)N[C@@H](C)C(N)=O)NC(=O)[C@H](Cc3csc5ccccc35)NC(=O)[C@H](Cc3ccsc3)NC4=O)NC(=O)[C@H](Cc3ccccc3)NC(=O)[C@H](C)NC(=O)C(C)(C)NC(=O)[C@H](Cc3cccc(C(=O)O)c3)NC(=O)[C@H](CC(=O)O)NC1=O)NC(=O)[C@H](CC(C)(C)C)NC(=O)[C@H]([C@H](C)O)NC2=O` (relative stereo) [I-163, Ac-PL3-aThr-Npg-B5-Asp-3COOHF-Aib-Ala-Phe-Lys*3-PyrS2-3Thi-BztA-GlnR*3-Ala-NH2], the IC50 is below 50 nM in test [1] and 3 to 10 µM in test [2].

As to `CNC(=O)C[C@@H]1NC(=O)[C@]2(CC=CCCCC3(CCCC=CCCCOC(=O)N4CC[C@@]5(C4)NC(=O)[C@H](CCCCNC(=O)CC[C@@H](C(=O)N[C@@H](C)C(N)=O)NC(=O)[C@H](Cc4csc6ccccc46)NC(=O)[C@H](Cc4ccsc4)NC5=O)NC(=O)[C@H](Cc4ccccc4)NC(=O)[C@H](C)NC(=O)C(C)(C)NC(=O)[C@H](Cc4cccc(C(=O)O)c4)NC(=O)[C@H](CC(=O)O)NC3=O)NC(=O)[C@H](CC(C)(C)C)NC1=O)CCCN2C(C)=O` (relative stereo) [I-164, Ac-PL3-MeAsn-Npg-B5-Asp-3COOHF-Aib-Ala-Phe-Lys*3-PyrS2-3Thi-BztA-GlnR*3-Ala-NH2], the half-inhibitory concentration (IC50) in test [1] is 50 to 200 nM; in test [2], above 10 µM.

With `CC(=O)N1CCC[C@]12CC=CCCCC1(CCCC=CCCCOC(=O)N3CC[C@@]4(C3)NC(=O)[C@H](CCCCNC(=O)CC[C@@H](C(=O)N[C@@H](C)C(N)=O)NC(=O)[C@H](Cc3csc5ccccc35)NC(=O)[C@H](Cc3ccsc3)NC4=O)NC(=O)[C@H](Cc3ccccc3)NC(=O)[C@H](C)NC(=O)C(C)(C)NC(=O)[C@H](Cc3cccc(C(=O)O)c3)NC(=O)[C@H](CC(N)=O)NC1=O)NC(=O)[C@H](CC(C)(C)C)NC(=O)[C@H](CC(=O)O)NC2=O` (relative stereo) [I-165, Ac-PL3-Asp-Npg-B5-Asn-3COOHF-Aib-Ala-Phe-Lys*3-PyrS2-3Thi-BztA-GlnR*3-Ala-NH2], the half-maximal inhibitory concentration (IC50) was below 50 nM in test [1] and 3 to 10 µM in test [2].

As for `CC(=O)N1CCC[C@]12CC=CCCCC1(CCCC=CCCCOC(=O)N3CC[C@@]4(C3)NC(=O)[C@H](CCCCNC(=O)CC[C@@H](C(=O)N[C@@H](C)C(N)=O)NC(=O)[C@H](Cc3csc5ccccc35)NC(=O)[C@H](Cc3ccsc3)NC4=O)NC(=O)[C@H](Cc3ccccc3)NC(=O)[C@H](C)NC(=O)C(C)(C)NC(=O)[C@H](Cc3cccc(C(=O)O)c3)NC(=O)[C@H](CO)NC1=O)NC(=O)[C@H](CC(C)(C)C)NC(=O)[C@H](CC(=O)O)NC2=O` (relative stereo) [I-166, Ac-PL3-Asp-Npg-B5-Ser-3COOHF-Aib-Ala-Phe-Lys*3-PyrS2-3Thi-BztA-GlnR*3-Ala-NH2], the 50% inhibitory concentration (IC50) is 50 to 200 nM in test [1] and 3 to 10 µM in test [2].

Regarding `CC(=O)N1CCC[C@]12CC=CCCCC1(CCCC=CCCCOC(=O)N3CC[C@@]4(C3)NC(=O)[C@H](CCCCNC(=O)CC[C@@H](C(=O)N[C@@H](C)C(N)=O)NC(=O)[C@H](Cc3csc5ccccc35)NC(=O)[C@H](Cc3ccsc3)NC4=O)NC(=O)[C@H](Cc3ccccc3)NC(=O)[C@H](C)NC(=O)C(C)(C)NC(=O)[C@H](Cc3cccc(C(=O)O)c3)NC(=O)[C@H](CCO)NC1=O)NC(=O)[C@H](CC(C)(C)C)NC(=O)[C@H](CC(=O)O)NC2=O` (relative stereo) [I-168, Ac-PL3-Asp-Npg-B5-Hse-3COOHF-Aib-Ala-Phe-Lys*3-PyrS2-3Thi-BztA-GlnR*3-Ala-NH2], the 50% inhibitory concentration (IC50) is 200 to 750 nM in test [1] and above 10 µM in test [2].

In the case of `CC(=O)N1CCC[C@]12CC=CCCCC1(CCCC=CCCCOC(=O)N3CC[C@@]4(C3)NC(=O)[C@H](CCCCNC(=O)CC[C@@H](C(=O)N[C@@H](C)C(N)=O)NC(=O)[C@H](Cc3csc5ccccc35)NC(=O)[C@H](Cc3ccsc3)NC4=O)NC(=O)[C@H](Cc3ccccc3)NC(=O)[C@H](C)NC(=O)C(C)(C)NC(=O)[C@H](Cc3cccc(C(=O)O)c3)NC(=O)[C@H]([C@H](C)O)NC1=O)NC(=O)[C@H](CC(C)(C)C)NC(=O)[C@H](CC(=O)O)NC2=O` (relative stereo) [I-169, Ac-PL3-Asp-Npg-B5-aThr-3COOHF-Aib-Ala-Phe-Lys*3-PyrS2-3Thi-BztA-GlnR*3-Ala-NH2], the IC50 in test [1] was 50 to 200 nM; in test [2], above 10 µM.

With `CNC(=O)C[C@@H]1NC(=O)C2(CCCC=CCCCOC(=O)N3CC[C@@]4(C3)NC(=O)[C@H](CCCCNC(=O)CC[C@@H](C(=O)N[C@@H](C)C(N)=O)NC(=O)[C@H](Cc3csc5ccccc35)NC(=O)[C@H](Cc3ccsc3)NC4=O)NC(=O)[C@H](Cc3ccccc3)NC(=O)[C@H](C)NC(=O)C(C)(C)NC(=O)[C@H](Cc3cccc(C(=O)O)c3)NC1=O)CCCC=CC[C@]1(CCCN1C(C)=O)C(=O)N[C@@H](CC(=O)O)C(=O)N[C@@H](CC(C)(C)C)C(=O)N2` (relative stereo) [I-170, Ac-PL3-Asp-Npg-B5-MeAsn-3COOHF-Aib-Ala-Phe-Lys*3-PyrS2-3Thi-BztA-GlnR*3-Ala-NH2], the IC50 in test [1] was 50 to 200 nM; in test [2], above 10 µM.

In the case of `CC(=O)N1CCC[C@]12CCCCCCC1(CCCCCCCCOC(=O)N3CC[C@@]4(C3)NC(=O)[C@H](CCCCNC(=O)CC[C@@H](C(=O)N[C@@H](C)C(N)=O)NC(=O)[C@H](Cc3csc5ccccc35)NC(=O)[C@H](Cc3ccsc3)NC4=O)NC(=O)[C@H](Cc3ccccc3)NC(=O)[C@H](C)NC(=O)C(C)(C)NC(=O)[C@H](Cc3cccc(C(=O)O)c3)NC(=O)[C@H](CC(=O)O)NC1=O)NC(=O)[C@H](CC(C)(C)C)NC(=O)[C@H](CC(N)=O)NC2=O` (relative stereo) [I-171, Ac-PL3-Asn-Npg-B5-Asp-3COOHF-Aib-Ala-Phe-Lys*3-PyrS2-3Thi-BztA-GlnR*3-Ala-NH2], the IC50 in test [1] was 50 to 200 nM; in test [2], above 10 µM.

For the compound `CC(=O)N1CCC[C@]12CCCCCCC1(CCCCCCCCOC(=O)N3CC[C@@]4(C3)NC(=O)[C@H](CCCCNC(=O)CC[C@@H](C(=O)N[C@@H](C)C(N)=O)NC(=O)[C@H](Cc3csc5ccccc35)NC(=O)[C@H](Cc3ccsc3)NC4=O)NC(=O)[C@H](Cc3ccccc3)NC(=O)[C@H](C)NC(=O)C(C)(C)NC(=O)[C@H](Cc3cccc(C(=O)O)c3)NC(=O)[C@H](CC(N)=O)NC1=O)NC(=O)[C@H](CC(C)(C)C)NC(=O)[C@H](CC(=O)O)NC2=O` (relative stereo) [I-177, Ac-PL3-Asp-Npg-B5-Asn-3COOHF-Aib-Ala-Phe-Lys*3-PyrS2-3Thi-BztA-GlnR*3-Ala-NH2], the IC50 in test [1] is 200 to 750 nM; in test [2] it was above 10 µM.

Consider `CC(=O)N1CCC[C@]12CC=CCCCC1(CCCC=CCCCOC(=O)N3CC[C@@]4(C3)NC(=O)[C@H](CCCCNC(=O)CCC[C@@H](C(=O)N[C@@H](C)C(N)=O)NC(=O)[C@H](Cc3csc5ccccc35)NC(=O)[C@H](Cc3ccsc3)NC4=O)NC(=O)[C@H](Cc3ccccc3)NC(=O)[C@H](C)NC(=O)[C@H](C)NC(=O)[C@H](Cc3cccc(C(=O)O)c3)NC(=O)[C@H](CC(=O)O)NC1=O)NC(=O)[C@H](CC(C)(C)C)NC(=O)[C@H](CC(=O)O)NC2=O` (relative stereo) [I-183, Ac-PL3-Asp-Npg-B5-Asp-3COOHF-Ala-Ala-Phe-Lys*3-PyrS2-3Thi-BztA-hGlnR*3-Ala-NH2], for which the figures for the IC50 in test [1] and in test [2] were below 50 nM and 3 to 10 µM, respectively.

In the case of `CC(=O)N1CCC[C@]12CC=CCCCC1(CCCC=CCCCOC(=O)N3CC[C@@]4(C3)NC(=O)[C@H](CCCCN(C(C)C)C(=O)CCC[C@@H](C(=O)N[C@@H](C)C(N)=O)NC(=O)[C@H](Cc3csc5ccccc35)NC(=O)[C@H](Cc3ccsc3)NC4=O)NC(=O)[C@H](Cc3ccccc3)NC(=O)[C@H](C)NC(=O)[C@H](C)NC(=O)[C@H](Cc3cccc(C(=O)O)c3)NC(=O)[C@H](CC(=O)O)NC1=O)NC(=O)[C@H](CC(C)(C)C)NC(=O)[C@H](CC(=O)O)NC2=O` (relative stereo) [I-187, Ac-PL3-Asp-Npg-B5-Asp-3COOHF-Ala-Ala-Phe-iPrLys*3-PyrS2-3Thi-BztA-hGlnR*3-Ala-NH2], the IC50 in test [1] was below 50 nM; in test [2], 3 to 10 µM.

As to `CC(=O)N1CCC[C@]12CC=CCCCC1(CCCC=CCCCOC(=O)N3CC[C@@]4(C3)NC(=O)[C@H](CCCCN(C(C)C)C(=O)CCC[C@@H](C(=O)N[C@@H](C)C(N)=O)NC(=O)[C@H](Cc3csc5ccccc35)NC(=O)[C@H](Cc3ccccc3C(F)(F)F)NC4=O)NC(=O)[C@H](Cc3ccccc3)NC(=O)[C@H](C)NC(=O)[C@H](C)NC(=O)[C@H](Cc3cccc(C(=O)O)c3)NC(=O)[C@H](CC(=O)O)NC1=O)NC(=O)[C@H](CC(C)(C)C)NC(=O)[C@H](CC(=O)O)NC2=O` (relative stereo) [I-188, Ac-PL3-Asp-Npg-B5-Asp-3COOHF-Ala-Ala-Phe-iPrLys*3-PyrS2-2F3MeF-BztA-hGlnR*3-Ala-NH2], the results for the 50% inhibitory concentration (IC50) in test [1] and in test [2] were below 50 nM and 3 to 10 µM, respectively.

As for `CC(=O)N1CCC[C@]12CC=CCCCC1(CCCC=CCCCOC(=O)N3CC[C@@]4(C3)NC(=O)[C@H](CCCC(=O)N(C(C)C)CCCC[C@@H](C(=O)N[C@@H](C)C(N)=O)NC(=O)[C@H](Cc3csc5ccccc35)NC(=O)[C@H](Cc3ccccc3C(F)(F)F)NC4=O)NC(=O)[C@H](Cc3ccccc3)NC(=O)[C@H](C)NC(=O)[C@H](C)NC(=O)[C@H](Cc3cccc(C(=O)O)c3)NC(=O)[C@H](CC(=O)O)NC1=O)NC(=O)[C@H](CC(C)(C)C)NC(=O)[C@H](CC(=O)O)NC2=O` (relative stereo) [I-189, Ac-PL3-Asp-Npg-B5-Asp-3COOHF-Ala-Ala-Phe-hGlnR*3-PyrS2-2F3MeF-BztA-iPrLys*3-Ala-NH2], the results for the IC50 in test [1] and in test [2] were below 50 nM and 3 to 10 µM, respectively.
